# Results from patent publication US7456147B2, “Controlled release of active agents utilizing repeat sequence protein polymers” (Dow Corning, Corporation, priority 2003, dated 2008).
# Like-named read-outs stand apart in the source and are kept apart here.
substance,measurement,setting,value
glucose oxidase [Gox],degradation of the enzyme on storage,17 hours at 37° C. and 28 hours at room temperature,No degradation of the enzyme was observed
same,Gox activity after storage,after 17 hours at 37° C.,66.59 mg/mL
same,Gox activity after storage,after 28 hours at room temperature,66.75 mg/mL
